We go through 2 compounds from patent US20220218682A1, “COMPOSITIONS AND METHODS FOR TREATING CANCER” (THE UNITED STATES GOVERNMENT AS REPRESENTED BY THE …, priority 2019, published 2022).

“Also recorded” adds a separate entry of the source.

One experiment relates to HCC827 and H3255 cells. The experiment in a line: AlamarBlue cell viability assay, oncogene addicted EGFR mutant cells. The following applies: exogenous TNF with erlotinib. For orientation: The colour change of resazurin is a common sign of viable cells or microbes.
A further experiment relates to TNF. The experiment in a line: TNF protein in medium of brain cancer cells (GBM9), FIG. 1. The class given is cell-based. The conditions noted are these: INH with afatinib.

For “TNF: Recombinant human TNF obtained from Peprotech”, the “protection from erlotinib-induced cell death” value in the experiment on HCC827 and H3255 cells was “protects HCC827 and H3255 cells from erlotinib-induced cell death”.

In the case of `NNC(=O)c1ccncc1` [INH, Isoniazid], in the experiment on TNF, the “effect on TNF release / afatinib-induced TNF secretion” value was “can block TNF release; also recorded: blocked (or inhibited or suppressed)”.
